Assay results published in article PMC7357845.

Biological target: untagged ZASP-S WT (human) (UniProt O75112)
Test: SPR

Kd: 25 nM
Substance: rabbit skeletal muscle G-actin (from UniProt P68135 1-377) (natural protein)
